Yeast mating assay 1: variants of the scFv Ab-14

Reference: Engelhart et al. 2022, doi:10.1038/s41597-022-01779-4. File: FLAb, binding data.

All variants were tested on one target, the spike HR2 peptide PDVDLGDISGINAS (SARS-CoV-2).

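The starting antibody came from a phage panning campaign against this peptide. Library AAYL49 holds single substitutions and randomly drawn double and triple substitutions in the CDRs. Affinity was read by AlphaSeq, a pooled yeast mating assay with surface-displayed partners. Pairs that bind mate more often; barcode pairs of the diploids are counted by sequencing. The ratio of observed to expected reads was calibrated, replicate by replicate, on BCL2-family standards whose Kd was known from biolayer interferometry. Mating was done three times.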

The variants keep the light chain, the linker and the frameworks of Ab-14 (scFv order VH, the linker GGGGSGGGGSGGGGS, VL).
VH: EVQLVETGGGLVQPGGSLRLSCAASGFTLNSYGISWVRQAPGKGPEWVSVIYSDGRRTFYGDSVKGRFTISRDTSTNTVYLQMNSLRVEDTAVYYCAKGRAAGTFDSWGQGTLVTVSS
VL: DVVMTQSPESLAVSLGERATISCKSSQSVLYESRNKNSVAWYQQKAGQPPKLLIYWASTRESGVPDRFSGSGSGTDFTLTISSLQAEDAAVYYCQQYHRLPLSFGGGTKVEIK

The parent's heavy chain CDRs are GFTLNSYGIS, VIYSDGRRTFYGDSVK, GRAAGTFDS; each variant's own CDRs replace them letter for letter.
The Kd shown is the geometric mean over detected replicates; a lower Kd is a better binder.
Where no diploid with the target was found in any replicate, the entry reads "nd": below detection, most likely a poor binder, though not proof of it.
Nonspecific signal, from three strains lacking the peptide, appeared in 15% of pairings of library AAYL49, centred on 11 µM (5% of these signals below 680 nM); values are not corrected for it. The control count says in how many pairings with the empty strains this scFv gave a signal.

| Kd | replicates with signal | signal with controls | CDR-H1 | CDR-H2 | CDR-H3 |
|---|---|---|---|---|---|
| nd | 0/3 | 1/9 | GFTLNSTGCS | VIYSDGRRTNYGDSVK | GRAAGTFDS |
| nd | 0/3 | 0/9 | GFHLNSYGIR | VIYSDGRRTFYGDSVK | GRAAGTQDS |
| 2.3 µM | 2/3 | 1/9 | GFTCESYGIS | VIYSDGRRTFYGDSVK | GRAAGTFDS |
| 42 µM | 1/3 | 0/9 | GFTLNSYGCS | VIYSDGRDTFYGDSVM | GRAAGTFDS |
| 1.6 µM | 1/3 | 0/9 | EFTLNSYGIS | VMYSPGRRTFYGDSVK | GRAAGTFDS |
| nd | 0/3 | 0/9 | GFQLNSYGIS | VIYSDGRRMFYWDSVK | GRAAGTFDS |
| nd | 0/3 | 1/9 | EFTLNSYGIS | VIYSDGRRTFYGDYVK | GRAALTFDS |
| nd | 0/3 | 0/9 | GFTLNSYGIL | VIYLDGRRTFYGDSVW | GRAAGTFDS |
| nd | 0/3 | 0/9 | GPTLNSYGIS | VIYSDGRRTFYGDYVK | GRAAGTFDS |
| nd | 0/3 | 3/9 | GFTLNSYGIS | NISSDGRRTFYGDSCK | GRAAGTFDS |
| nd | 0/3 | 0/9 | GRTLNSYGIS | VIYSDGRRTFYGHSMK | GRAAGTFDS |
| 24 µM | 3/3 | 6/9 | GFTLNCYGIS | VIYSDGRRTFYGDSVK | GRAAGTFDW |
| 81 µM | 1/3 | 2/9 | GFTLNSYGIS | VIWSDGERTFYGDSAK | GRAAGTFDS |
| 140 nM | 3/3 | 0/9 | AFTLNQYGIS | VIYSDGRRTFYGGSVK | GRAAGTFDS |
| 62 nM | 3/3 | 5/9 | GFTLNSYGIS | VIYSDGRRTFYPDSVK | GRARGTFDS |
| nd | 0/3 | 0/9 | GFTLNSGGIS | VFYSDGRRTFYGDSVK | GRAAGFFDS |
| nd | 0/3 | 0/9 | GFTLNSYGIS | VIYVDFRRTFYGDSVK | VRAAGTFDS |
| nd | 0/3 | 0/9 | GFTCNSYGIS | VIYSDGRRTFYLDSVK | GRYAGTFDS |
| nd | 0/3 | 0/9 | GFTLNSYGKS | VIYCDGRRCFYGDSVK | GRAAGTFDS |
| nd | 0/3 | 1/9 | GFTLNSYGIS | VIYSDGRRTFYLDSVK | QTAAGTFDS |
| nd | 0/3 | 0/9 | GFTLNSYGIS | VIYSDGRRTFYGDAAK | GRAAKTFDS |
| nd | 0/3 | 0/9 | GFTLNGYGIS | IIYSDGRRTFYGDEVK | GRAAGTFDS |
| 1.9 µM | 3/3 | 0/9 | TFTLNSYGIS | VIYSDGRRRFYGDSVY | GRAAGTFDS |
| nd | 0/3 | 1/9 | GTTLNSYGIS | VIYSDGRRTFYGDSVK | GRAAGHMDS |
| 12 µM | 2/3 | 6/9 | GFTLNSYGIS | VIYSMGRRTFYGISNK | GRAAGTFDS |
| nd | 0/3 | 2/9 | GFTLNSYGIG | VIYSDGRRTFYGDSVK | GRFAGMFDS |
| 400 nM | 3/3 | 0/9 | GLTLNSYGIS | VIYSDGCRTFYGDSVK | GSAAGTFDS |
| 56 nM | 1/3 | 0/9 | GFTLNSYGVS | VIYSMGRRTFYGDSVK | GRAAGTFDS |
| nd | 0/3 | 0/9 | GFTLNSYGIS | VIYSDGRRTFYGTSWK | ERAAGTFDS |
| 190 µM | 2/3 | 1/9 | GFTLNSYGIS | VIDSDGRGTFRGDSVK | GRAAGTFDS |
| nd | 0/3 | 1/9 | GFTDNSYGIH | VIYSDGRRTFNGDSVK | GRAAGTFDS |
| 150 nM | 3/3 | 5/9 | GFTLNSEGIS | VIYSDGRRTFYCDSVK | GRGAGTFDS |
| 13 µM | 2/3 | 3/9 | GFTLNSYGIS | SIYSDGRRTFYGDSPH | GRAAGTFDS |
| 190 µM | 2/3 | 4/9 | GFTLMSTGIS | VIYSDGRRTFYGDSVK | GRAQGTFDS |
| 64 µM | 1/3 | 3/9 | GFTLNSYGWS | VIYSDGRRTFYGDKVK | RRAAGTFDS |
| nd | 0/3 | 1/9 | GFTLNSYGIS | VIYSSLARTFYGDSVK | GRAAGTFDS |
| 4.0 µM | 1/3 | 2/9 | GFTLNCYGIS | VIYSDGRRTLYGDSVK | GSAAGTFDS |
| nd | 0/3 | 0/9 | GFTLNWYGIS | VIYSDGRRTFYGDSPK | GRAAGTFTS |
| 960 nM | 3/3 | 1/9 | GFTLFSYGIS | VIYSDGRRTFYGDSVK | GKAAGSFDS |
| 43 µM | 1/3 | 3/9 | GFILNSYGIS | VIYSDGRRTFYGDSVK | GRAASTFDS |
| nd | 0/3 | 0/9 | GFTLNSYGLS | VIYSDGRRTFYGDSVI | GRVAGTFDS |
| nd | 0/3 | 1/9 | GFHLNSYGTS | VIYSDGRRTFYGDMVK | GRAAGTFDS |
| nd | 0/3 | 0/9 | GFTLNPYGIS | VIYSDGRRTFTGDSVW | GRAAGTFDS |
| 5.1 µM | 1/3 | 0/9 | GFTLNSYGIS | VIYSDGRRTFYGSDVK | GRASGTFDS |
| 47 µM | 1/3 | 3/9 | GFTLNSCGIS | HIYSDGRRTFYGASVK | GRAAGTFDS |
| nd | 0/3 | 1/9 | GFTTNSYGIS | VIYSDGRRTFYGDHVK | GRMAGTFDS |
| nd | 0/3 | 1/9 | GFTLPSYGIS | VIYSDGRRTFWGDGVK | GRAAGTFDS |
| nd | 0/3 | 0/9 | GFTLNSYGIS | VIYSDGRFTFGGQSVK | GRAAGTFDS |
| 450 nM | 3/3 | 2/9 | GFTLISYGIH | VIYSDGRRTFYGDSVK | GRAAGTFDS |

Excerpt, the first 6 entries:

| CDR-H1 | CDR-H2 | CDR-H3 | Kd | replicates with signal | signal with controls |
|---|---|---|---|---|---|
| GFTLNSTGCS | VIYSDGRRTNYGDSVK | GRAAGTFDS | nd | 0/3 | 1/9 |
| GFHLNSYGIR | VIYSDGRRTFYGDSVK | GRAAGTQDS | nd | 0/3 | 0/9 |
| GFTCESYGIS | VIYSDGRRTFYGDSVK | GRAAGTFDS | 2.3 µM | 2/3 | 1/9 |
| GFTLNSYGCS | VIYSDGRDTFYGDSVM | GRAAGTFDS | 42 µM | 1/3 | 0/9 |
| EFTLNSYGIS | VMYSPGRRTFYGDSVK | GRAAGTFDS | 1.6 µM | 1/3 | 0/9 |
| GFQLNSYGIS | VIYSDGRRMFYWDSVK | GRAAGTFDS | nd | 0/3 | 0/9 |